Source: ChEMBL document CHEMBL1138021, “Isoxazole carboxylic acids as protein tyrosine phosphatase 1B (PTP1B) inhibitors” (Bioorg Med Chem Lett, 2004)

Target: T1, Tyrosine-protein phosphatase non-receptor type 1 (Mus musculus, UniProt P35821)
T1 sequence (P35821 whole entry): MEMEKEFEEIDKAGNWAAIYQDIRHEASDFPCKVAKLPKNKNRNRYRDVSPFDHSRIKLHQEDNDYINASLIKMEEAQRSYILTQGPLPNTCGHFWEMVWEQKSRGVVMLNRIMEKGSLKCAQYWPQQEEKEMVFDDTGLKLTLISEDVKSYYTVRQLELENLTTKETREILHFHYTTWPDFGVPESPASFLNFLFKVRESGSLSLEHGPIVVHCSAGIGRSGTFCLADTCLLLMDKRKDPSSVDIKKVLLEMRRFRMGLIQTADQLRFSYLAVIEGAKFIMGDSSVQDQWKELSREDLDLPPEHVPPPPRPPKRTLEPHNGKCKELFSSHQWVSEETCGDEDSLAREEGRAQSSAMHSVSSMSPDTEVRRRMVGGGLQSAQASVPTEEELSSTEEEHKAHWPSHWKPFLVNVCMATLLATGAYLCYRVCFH
Experiment: Binding affinity for mouse protein-tyrosine phosphatase 1B (PTP1B) expressed in COS 7 cells
Assay type: cell-based

Compound: COC(=O)c1c(O)cccc1OC/C=C/c1ccc(F)c(-c2cc(C(=O)O)no2)c1
- pKi: 5.16

pKi: −log10 of the molar value.
